{
  "source": "patent US20200171165A1",
  "about": "“ENHANCED TARGETED DELIVERY OF THERAPEUTIC AGENTS” (Proteogenomics Research Institute for Systems Medicine, priority 2018, published 2020)",
  "test_system": "human BT474 (HER2 positive) cells",
  "test": "IVM model of human BT474 breast tumors in human donor mammary tissue: tumor growth",
  "assay_type": "in vivo",
  "details": "5 mg/kg, antibody alone",
  "data": [
    {"substance": "Herceptin: therapeutic antibody binding HER2 growth factor receptors", "values": [
      {"measurement": "Tumor growth over 14 days", "value": "slowed growth"}
    ]}
  ]
}
